Assay results published in US20190127354A1, “2,4,6,7-TETRASUBSTITUTED QUINOLINE COMPOUNDS AS INHIBITORS OF DNA […]” (FUNDACIÓN PARA LA INVESTIGACIÓN MÉDICA APLICADA, priority 2015, published 2019).

By UniProt entry, the sequences of proteins in these tests, tags left out.
UniProt P26358, whole entry: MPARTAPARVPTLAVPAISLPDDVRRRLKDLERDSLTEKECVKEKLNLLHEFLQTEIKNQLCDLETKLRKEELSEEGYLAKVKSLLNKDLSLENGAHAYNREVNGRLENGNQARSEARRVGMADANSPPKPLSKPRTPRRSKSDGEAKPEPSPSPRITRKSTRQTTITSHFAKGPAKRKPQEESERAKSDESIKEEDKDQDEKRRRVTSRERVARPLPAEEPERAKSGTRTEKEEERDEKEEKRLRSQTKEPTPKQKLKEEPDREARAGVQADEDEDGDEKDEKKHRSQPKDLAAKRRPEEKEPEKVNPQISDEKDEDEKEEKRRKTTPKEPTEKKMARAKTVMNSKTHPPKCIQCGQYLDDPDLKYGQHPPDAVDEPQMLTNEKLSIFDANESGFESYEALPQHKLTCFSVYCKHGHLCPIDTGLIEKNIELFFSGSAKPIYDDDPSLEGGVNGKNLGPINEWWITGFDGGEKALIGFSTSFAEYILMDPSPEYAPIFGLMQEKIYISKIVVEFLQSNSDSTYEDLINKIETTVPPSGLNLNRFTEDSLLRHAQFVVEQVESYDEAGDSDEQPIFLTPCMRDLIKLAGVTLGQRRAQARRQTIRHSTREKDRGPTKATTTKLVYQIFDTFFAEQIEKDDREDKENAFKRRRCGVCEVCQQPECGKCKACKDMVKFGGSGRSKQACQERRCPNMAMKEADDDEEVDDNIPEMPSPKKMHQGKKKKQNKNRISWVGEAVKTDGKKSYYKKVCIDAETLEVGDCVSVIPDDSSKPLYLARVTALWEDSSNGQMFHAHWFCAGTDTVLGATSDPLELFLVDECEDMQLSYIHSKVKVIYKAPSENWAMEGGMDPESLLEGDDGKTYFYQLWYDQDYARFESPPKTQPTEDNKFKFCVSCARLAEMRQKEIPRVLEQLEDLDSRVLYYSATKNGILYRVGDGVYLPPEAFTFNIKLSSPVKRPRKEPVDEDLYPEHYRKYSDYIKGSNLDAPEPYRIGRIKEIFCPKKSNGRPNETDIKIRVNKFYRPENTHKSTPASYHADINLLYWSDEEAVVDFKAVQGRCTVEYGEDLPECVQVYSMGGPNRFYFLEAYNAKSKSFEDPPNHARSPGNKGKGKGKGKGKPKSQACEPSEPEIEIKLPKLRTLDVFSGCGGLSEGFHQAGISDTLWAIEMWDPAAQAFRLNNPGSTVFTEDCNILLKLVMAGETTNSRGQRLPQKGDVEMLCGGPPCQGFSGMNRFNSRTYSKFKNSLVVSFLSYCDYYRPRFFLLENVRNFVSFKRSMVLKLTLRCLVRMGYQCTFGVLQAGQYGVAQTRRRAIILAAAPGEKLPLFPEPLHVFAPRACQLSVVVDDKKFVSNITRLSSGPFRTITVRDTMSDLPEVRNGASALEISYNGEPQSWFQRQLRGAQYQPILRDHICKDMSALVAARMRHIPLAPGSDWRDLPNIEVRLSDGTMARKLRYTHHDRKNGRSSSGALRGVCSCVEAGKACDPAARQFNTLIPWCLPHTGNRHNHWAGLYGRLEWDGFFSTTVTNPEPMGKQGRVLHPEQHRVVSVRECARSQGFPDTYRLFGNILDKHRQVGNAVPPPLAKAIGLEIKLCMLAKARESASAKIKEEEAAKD
UniProt Q96KQ7, whole entry: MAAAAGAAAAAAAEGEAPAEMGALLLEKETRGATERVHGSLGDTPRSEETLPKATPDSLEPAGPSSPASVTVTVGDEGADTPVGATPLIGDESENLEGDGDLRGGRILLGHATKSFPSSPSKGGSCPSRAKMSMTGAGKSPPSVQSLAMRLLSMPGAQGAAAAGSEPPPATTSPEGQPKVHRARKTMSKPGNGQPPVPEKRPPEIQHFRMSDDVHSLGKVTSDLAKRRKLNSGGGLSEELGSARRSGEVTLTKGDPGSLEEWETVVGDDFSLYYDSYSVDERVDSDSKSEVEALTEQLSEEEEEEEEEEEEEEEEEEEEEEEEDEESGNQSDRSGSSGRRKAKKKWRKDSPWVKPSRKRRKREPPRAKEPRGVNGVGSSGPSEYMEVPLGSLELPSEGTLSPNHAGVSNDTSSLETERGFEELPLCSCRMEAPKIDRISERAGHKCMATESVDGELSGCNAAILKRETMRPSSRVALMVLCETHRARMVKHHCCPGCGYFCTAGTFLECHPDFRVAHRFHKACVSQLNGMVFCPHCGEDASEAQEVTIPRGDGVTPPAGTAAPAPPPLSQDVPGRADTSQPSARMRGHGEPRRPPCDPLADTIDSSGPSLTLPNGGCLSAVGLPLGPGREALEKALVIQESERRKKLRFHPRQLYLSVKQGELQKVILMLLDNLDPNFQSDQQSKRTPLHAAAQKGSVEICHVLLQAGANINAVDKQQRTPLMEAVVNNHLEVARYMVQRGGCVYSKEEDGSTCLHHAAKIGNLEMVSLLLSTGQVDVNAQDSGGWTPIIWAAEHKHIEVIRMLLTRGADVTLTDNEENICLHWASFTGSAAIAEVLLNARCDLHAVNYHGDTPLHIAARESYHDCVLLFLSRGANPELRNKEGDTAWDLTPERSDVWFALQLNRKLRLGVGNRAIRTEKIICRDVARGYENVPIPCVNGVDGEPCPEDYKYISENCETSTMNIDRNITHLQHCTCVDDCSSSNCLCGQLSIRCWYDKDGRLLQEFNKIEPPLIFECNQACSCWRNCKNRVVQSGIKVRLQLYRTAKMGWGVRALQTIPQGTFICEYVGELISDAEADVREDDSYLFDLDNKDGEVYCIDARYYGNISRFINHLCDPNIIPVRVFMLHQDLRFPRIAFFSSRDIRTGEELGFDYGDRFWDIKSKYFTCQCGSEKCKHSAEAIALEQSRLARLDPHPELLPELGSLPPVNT

What was measured:
human DNMT1 = human DNMT1 (Homo sapiens, UniProt P26358); test: DNMT1 enzyme activity assay (TR-FRET, EPIgeneous methyltransferase assay); type: biochemical; conditions: read-out: DNMT1 IC50; human DNMT1, 15 minutes at 37° C.
human G9a enzyme = human G9a enzyme (Homo sapiens, UniProt Q96KQ7); test: G9a enzyme activity assay (TR-FRET); type: biochemical; conditions: read-out: G9a IC50, 1 hour at room temperature

With `CNC1CCC12CCN(c1cc(-c3ccc(C)o3)nc3cc(OCCCN4CCCC4)c(OC)cc13)CC2` (centres unmarked) the IC50 (human DNMT1) was 1000 to 10000 nM and the IC50 (human G9a enzyme) was 500 to 1000 nM.
